# Experimental data as given in patent publication US10100095B2, “Resistant mutant 90 kDa heat shock protein” (TAIHO PHARMACEUTICAL CO., LTD., priority 2013, dated 2018).
# The chains behind the UniProt entries cited, without tags or fusion partners. Where a name states a change or a piece, a line headed by the entry shows the natural chain unless it says otherwise. Residues count along the entry.
# UniProt P07900, 2-236 Q23E limits assumed: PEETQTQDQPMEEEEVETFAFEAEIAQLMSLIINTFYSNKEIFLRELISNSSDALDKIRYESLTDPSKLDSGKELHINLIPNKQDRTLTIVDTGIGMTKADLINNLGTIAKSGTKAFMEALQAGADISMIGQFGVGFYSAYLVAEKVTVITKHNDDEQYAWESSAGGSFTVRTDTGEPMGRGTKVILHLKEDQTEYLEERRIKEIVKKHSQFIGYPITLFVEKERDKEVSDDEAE
# UniProt P07900, 2-236 F138L limits assumed: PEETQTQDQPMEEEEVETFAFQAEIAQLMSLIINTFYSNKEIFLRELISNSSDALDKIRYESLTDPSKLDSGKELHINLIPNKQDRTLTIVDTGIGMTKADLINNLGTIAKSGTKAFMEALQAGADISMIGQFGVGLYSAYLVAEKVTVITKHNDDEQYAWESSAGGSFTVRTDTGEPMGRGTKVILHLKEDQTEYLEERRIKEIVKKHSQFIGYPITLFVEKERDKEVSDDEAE
# UniProt P07900, 2-236 Y139F limits assumed: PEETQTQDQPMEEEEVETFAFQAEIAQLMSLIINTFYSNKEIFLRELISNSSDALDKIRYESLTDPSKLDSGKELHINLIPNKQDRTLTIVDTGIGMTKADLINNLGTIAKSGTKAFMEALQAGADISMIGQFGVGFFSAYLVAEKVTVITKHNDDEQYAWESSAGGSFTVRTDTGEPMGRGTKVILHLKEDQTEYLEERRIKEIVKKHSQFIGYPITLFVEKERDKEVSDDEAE
# UniProt P07900, 2-236 limits assumed: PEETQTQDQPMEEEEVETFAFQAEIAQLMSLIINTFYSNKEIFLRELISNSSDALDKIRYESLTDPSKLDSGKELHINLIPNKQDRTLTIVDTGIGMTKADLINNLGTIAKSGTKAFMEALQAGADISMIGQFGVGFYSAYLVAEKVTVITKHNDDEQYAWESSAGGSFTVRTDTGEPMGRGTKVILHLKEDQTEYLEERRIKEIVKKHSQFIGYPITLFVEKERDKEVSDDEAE
# How the values were obtained:
# [1] = target: wild-type HSP90α class A N-terminal protein (Homo sapiens, UniProt P07900); test: Fluorescence polarization assay, inhibition of Cy3B-labeled geldanamycin binding, wild-type HSP90; details: read-out: IC50 (nM) WT, 40 nM Cy3B-labeled geldanamycin, room temperature, 2 hours
# [2] = target: mutant HSP90F138L (HSP90α class A N-terminal protein) (Homo sapiens, UniProt P07900, F138L); test: Fluorescence polarization assay, inhibition of Cy3B-labeled geldanamycin binding, mutant F138L
# [3] = target: mutant HSP90Q23E (HSP90α class A N-terminal protein) (Homo sapiens, UniProt P07900, Q23E); test: Fluorescence polarization assay, inhibition of Cy3B-labeled geldanamycin binding, mutant Q23E
# [4] = target: mutant HSP90Y139F (HSP90α class A N-terminal protein) (Homo sapiens, UniProt P07900, Y139F); test: Fluorescence polarization assay, inhibition of Cy3B-labeled geldanamycin binding, mutant Y139F
structure (smiles),measurement,setting,value
CCNc1cc(C(N)=O)ccc1-n1nc(C(F)(F)F)c2c(-n3cnc(-c4cnn(C)c4)c3)ccnc21,IC50,[1],600 nM
same,Ratio (vs WT) F138L,[2]; IC50 of mutant F138L / IC50 of wild-type,2.2
same,IC50,"[2]; read-out: IC50 (nM) F138L, mutant F138L, 40 nM Cy3B-labeled geldanamycin, room temperature, 2 hours",1340 nM
same,Ratio (vs WT) Q23E,[3]; IC50 of mutant Q23E / IC50 of wild-type,1.4
same,IC50,"[3]; read-out: IC50 (nM) Q23E, mutant Q23E, 40 nM Cy3B-labeled geldanamycin, room temperature, 2 hours",859 nM
same,Ratio (vs WT) Y139F,[4]; IC50 of mutant Y139F / IC50 of wild-type,0.35
same,IC50,"[4]; read-out: IC50 (nM) Y139F, mutant Y139F, 40 nM Cy3B-labeled geldanamycin, room temperature, 2 hours",211 nM
